Target: Plk1 PBD (Homo sapiens, UniProt P53350)
Experiment: Plk1 PBD fluorescence polarization competition binding assay
Conditions: 2.56 µM

The chains behind the UniProt entries cited, without tags or fusion partners. Residues count along the entry.
UniProt P53350, 326-603 limits assumed: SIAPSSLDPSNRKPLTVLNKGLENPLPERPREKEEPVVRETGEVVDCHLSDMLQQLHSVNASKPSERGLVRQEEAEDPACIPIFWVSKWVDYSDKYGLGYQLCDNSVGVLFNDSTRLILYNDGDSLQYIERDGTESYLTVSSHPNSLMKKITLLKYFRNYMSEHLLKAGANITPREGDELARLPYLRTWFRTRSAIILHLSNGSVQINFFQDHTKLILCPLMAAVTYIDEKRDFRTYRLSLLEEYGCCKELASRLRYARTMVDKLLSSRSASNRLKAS

Substance: PLHSpT [compound 1]
- inhibition at the highest concentration tested: 40 ± 0.2%

Reference: article PMC4536914 (Chembiochem : a European journal of chemical biology, 2012)
